Measured water solubility values of organic chemicals

From the experimental data distributed with OPERA 2.9.

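The OPERA project collected these measurements from public sources as training and test data for property models. The files give a single number for a compound and property, which may rest on several reports. Method, purity and exact conditions of the single measurements are not given. A value may pool stereoisomers or salt forms, and the file does not say which form was measured. Unmarked limits or estimates from the upstream databases cannot be ruled out.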

Solubility in water is on a log10 molar scale (set defined at 25 °C).
Cells with "n/a" have no entry in this list.

structure (SMILES),name,log solubility (log10 mol/L)
CC(=O)Nc1cccc(Cl)c1,"Acetamide, N-(3-chlorophenyl)-",-2.28
COc1ccc(-c2ccccc2)cc1,"1,1'-Biphenyl, 4-methoxy-",-3.821
O=C(O)c1cn(-c2ccc(F)cc2)c2cc(N3CCNCC3)c(F)cc2c1=O,Sarafloxacin,-3.59
CC(=O)OC(OC(C)=O)C(OC(C)=O)OC(C)=O,"1,1,2,2-Tetraacetoxy-ethane",-2.096
CC(=O)N[C@@H](CC(=O)O)C(=O)O,(2S)-2-Acetamidobutanedioic acid,0.586
Nc1ccc2cc(S(=O)(=O)[O-])cc(O)c2c1/N=N/c1ccccc1S(=O)(=O)c1ccccc1.[Na+],n/a,-2.089
CCC1CCCCN1 (centres undefined),"Piperidine, 2-ethyl-",-0.345
CCCOC(=O)C(C)OC(C)=O (centres undefined),Propyl 2-acetoxypropanoate,-0.64
Nc1ncnc2c1ncn2Cc1ccccc1,9-Benzyladenine,-2.709
O=C1C=CC(=O)N1Cc1cccc(CN2C(=O)C=CC2=O)c1,n/a,-3.897
CCCCOCCOCCOC(=O)CCC(=O)OCCOCCOCCCC,Bis[2-(2-butoxyethoxy)ethyl] butanedioate,-2.108
OC[C@H]1OC2(COC3(CO2)O[C@H](CO)[C@@H](O)[C@@H]3O)[C@@H](O)[C@@H]1O (stereo partly drawn),"Di-D-Fructofuranose 1,2':2,1'-dianhydride",-0.006
CC1CCCC(C)N1C(=O)COC(=O)c1ccccc1 (centres undefined),"2-(2,6-Dimethylpiperidin-1-yl)-2-oxoethyl benzoate",-3.26
CCC(=O)c1ccc2c(c1)N(CC(C)N(C)C)c1ccccc1S2 (centres undefined),Propiomazine,-4.685
Cc1ccc(C(C)NC(=O)[C@@H](NC(=O)OC(C)C)C(C)C)cc1 (stereo partly specified),Iprovalicarb,-4.26
Fc1ccc(Br)cc1,1-Bromo-4-fluorobenzene,-2.956
Cc1nnc(C(C)C)n1[C@H]1C[C@H]2CC[C@@H](C1)N2CC[C@H](NC(=O)C1CCC(F)(F)CC1)c1ccccc1,Maraviroc,-4.685
Nc1ccc2c(O)cc(S(=O)(=O)O)cc2c1,7-Amino-4-hydroxynaphthalene-2-sulfonic acid,-2.728
CC(O)CN(N=Cc1ccc([N+](=O)[O-])o1)C(N)=O (centres undefined),n/a,-2.631
Cn1c(=O)c2[nH]c(=O)[nH]c2n(C)c1=O,"1,3-Dimethyluric acid",-2.577
C[C@@H](SC(=S)S[C@H](C)C(=O)O)C(=O)O,"Propionic acid, 2-mercapto-, trithiocarbonate (2:1)",-1.911
O=C1OCCCN1N=Cc1ccc([N+](=O)[O-])o1,"3-{[(5-Nitrofuran-2-yl)methylidene]amino}-1,3-oxazinan-2-one",-3.48
COC(=O)/C(C)=C/C(=O)O,(2E)-4-Methoxy-3-methyl-4-oxo-2-butenoic acid,-0.752
CC(F)(F)F,"1,1,1-Trifluoroethane",-2.043
CC(=O)Nc1cccc([N+](=O)[O-])c1,"Acetamide, N-(3-nitrophenyl)-",-2.17
Clc1ccc2c(Cl)ccnc2c1,"4,7-Dichloroquinoline",-3.729
CC(C)CC(=O)C(=O)O,alpha-Ketoisocaproic acid,-0.609
COc1ccccc1N=Nc1c(O)ccc2ccccc12,Solvent Red 1,-8.932
CC(C)c1cccc(=O)c(O)c1,beta-Thujaplicin,-2.14
CCCCCCN1CC(C(=O)OC)CC1=O (centres undefined),Methyl 1-hexyl-5-oxopyrrolidine-3-carboxylate,-1.246
Cc1ccc([N+](=O)[O-])cc1N=Nc1c(O)c(C(=O)Nc2ccccc2)cc2ccccc12,C.I. Pigment Red 22,-7.558
CCCCCCCCCCOC(=O)C(C)O (centres undefined),decyl lactate,-1.35
CCCC(c1cc(C(C)(C)C)c(O)cc1C)c1cc(C(C)(C)C)c(O)cc1C,"4,4'-Butane-1,1-diylbis(2-tert-butyl-5-methylphenol)",-7.981
O=C(O)c1ccc2c(c1C(=O)O)C(=O)c1ccccc1C2=O,n/a,-2.814
Cc1ncc(CO)c(CN)c1O.Cl.Cl,Pyridoxamine dihydrochloride,0.474

Repeated from above, the 6 entries with the highest log solubility:

{"smiles": "CC(=O)N[C@@H](CC(=O)O)C(=O)O", "name": "(2S)-2-Acetamidobutanedioic acid", "log solubility (log10 mol/L)": "0.586"}
{"smiles": "Cc1ncc(CO)c(CN)c1O.Cl.Cl", "name": "Pyridoxamine dihydrochloride", "log solubility (log10 mol/L)": "0.474"}
{"smiles": "OC[C@H]1OC2(COC3(CO2)O[C@H](CO)[C@@H](O)[C@@H]3O)[C@@H](O)[C@@H]1O", "stereo": "stereo partly drawn", "name": "Di-D-Fructofuranose 1,2':2,1'-dianhydride", "log solubility (log10 mol/L)": "-0.006"}
{"smiles": "CCC1CCCCN1", "stereo": "centres undefined", "name": "Piperidine, 2-ethyl-", "log solubility (log10 mol/L)": "-0.345"}
{"smiles": "CC(C)CC(=O)C(=O)O", "name": "alpha-Ketoisocaproic acid", "log solubility (log10 mol/L)": "-0.609"}
{"smiles": "CCCOC(=O)C(C)OC(C)=O", "stereo": "centres undefined", "name": "Propyl 2-acetoxypropanoate", "log solubility (log10 mol/L)": "-0.64"}